The values that follow are results of earlier work, collected in patent US6503545B1, “Hyper-absorption of vitamin E combined with milk protein” (Brandeis University, priority 1999, dated 2003).

For this data set the following is noted: 800 IU per day for 4 months, healthy elderly; cited from earlier work.

Regarding vitamin E, the side-effects entry was “no detectable side-effects”.
